Legend:
plasmin = plasmin (UniProt P00747); test: enzyme inhibition kinetics
thrombin = thrombin (UniProt P00734); test: enzyme inhibition kinetics

| second-order rate constant of inhibition (plasmin) [M⁻¹ s⁻¹] | second-order rate constant of inhibition (thrombin) [M⁻¹ s⁻¹] | Substance |
| --- | --- | --- |
| 71200 | 3300 | PAI-1 Glu351Arg (from UniProt P05121 24-402) (natural protein) |
| 62900 | 1740 | PAI-1 Glu351Ala (from UniProt P05121 24-402) (natural protein) |

Reference: publication PMC179894
